For this series the following is noted: off-white crystalline powder.

Turning to puerarin 1.25 hydrate [Sample 4], the Solubility in water result is given as “easy to dissolve in water”.

Source of the values: patent US20130331345A1, “PUERARIN HYDRATES, PREPARATION METHODS AND USES THEREOF” (priority 2010, published 2013).
